Ratio data for eight compounds are collected here from ChEMBL document CHEMBL1148353, “Development of potent bifunctional endomorphin-2 analogues with mixed mu-/delta-opioid agonist and delta-opioid antagonist properties” (J Med Chem, 2004).

Amino acid sequences for entries named in this document (tags omitted).
UniProt P33533, whole entry, looked up: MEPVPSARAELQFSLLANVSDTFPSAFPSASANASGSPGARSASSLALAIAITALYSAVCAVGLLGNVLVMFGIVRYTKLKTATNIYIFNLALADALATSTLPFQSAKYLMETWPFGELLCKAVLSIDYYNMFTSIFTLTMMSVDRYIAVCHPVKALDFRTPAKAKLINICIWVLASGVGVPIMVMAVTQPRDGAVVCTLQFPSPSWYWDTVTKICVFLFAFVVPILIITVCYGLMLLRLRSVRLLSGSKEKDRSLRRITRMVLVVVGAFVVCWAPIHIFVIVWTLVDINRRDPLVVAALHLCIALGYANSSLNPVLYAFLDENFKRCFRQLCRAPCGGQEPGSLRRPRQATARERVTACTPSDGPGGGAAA
UniProt P33535, whole entry, looked up: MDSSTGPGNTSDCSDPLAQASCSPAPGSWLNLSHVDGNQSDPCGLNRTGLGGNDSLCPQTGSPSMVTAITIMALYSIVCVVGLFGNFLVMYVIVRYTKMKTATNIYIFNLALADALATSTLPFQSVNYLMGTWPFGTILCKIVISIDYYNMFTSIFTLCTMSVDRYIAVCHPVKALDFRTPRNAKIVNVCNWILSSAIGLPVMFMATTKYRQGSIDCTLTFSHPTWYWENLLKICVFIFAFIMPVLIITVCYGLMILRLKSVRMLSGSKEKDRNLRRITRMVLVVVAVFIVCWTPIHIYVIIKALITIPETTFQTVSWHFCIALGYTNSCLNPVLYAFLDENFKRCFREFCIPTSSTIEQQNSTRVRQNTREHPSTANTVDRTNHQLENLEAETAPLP

For this assay, the target named is Opioid receptors; mu & delta (Rattus norvegicus) (UniProt P33533+P33535). Description: Ratio of binding affinity against rat brain delta opioid receptor to that of mu opioid receptor.
Regarding `Cc1cc(O)cc(C)c1C[C@H](N)C(=O)N1CCC[C@H]1C(=O)N[C@@H](Cc1ccccc1)C(=O)Nc1ccncc1`, the Ratio is 424. The value for `Cc1cc(O)cc(C)c1C[C@H](N)C(=O)N1CCC[C@H]1C(=O)N[C@@H](Cc1ccccc1)C(=O)Nc1cccnc1` was 1730; that for `Cc1cc(O)cc(C)c1C[C@H](N)C(=O)N1CCC[C@H]1C(=O)N[C@@H](Cc1ccccc1)C(=O)NCc1ccccc1` was 27. The value for `Cc1cc(O)cc(C)c1C[C@H](N)C(=O)N1CCC[C@H]1C(=O)N[C@@H](Cc1ccccc1)C(=O)Nc1ccccn1` was 1190; that for `Cc1cc(O)cc(C)c1C[C@H](N)C(=O)N1CCC[C@H]1C(=O)N[C@@H](Cc1ccccc1)C(=O)Nc1cccc2cnccc12` was 517; that for `Cc1cc(O)cc(C)c1C[C@H](N)C(=O)N1CCC[C@H]1C(=O)N[C@@H](Cc1ccccc1)C(=O)Nc1ccccc1` was 19. The value for `Cc1cc(O)cc(C)c1C[C@H](N)C(=O)N1CCC[C@H]1C(=O)N[C@@H](Cc1ccccc1)C(=O)Nc1ccc2ncccc2c1` was 212. As to `Cc1cc(O)cc(C)c1C[C@H](N)C(=O)N1CCC[C@H]1C(=O)N[C@@H](Cc1ccccc1)C(=O)Nc1cccc2cccnc12`, the Ratio was determined as 68.
